Earlier results on two substances are cited in patent publication US8048872B2, “Treatment of hyperproliferative diseases with vinca alkaloid N-oxide and analogs” (Stat of Oregon Acting by and Through The Oregon State Board …, priority 2006, dated 2011).

The conditions of this data set: cited from earlier work.

Where two headings read alike, the source gives them in different places.

Take Interleukin-2: where the note is “Grade III-IV”, the Acidosis entry is reported as “Acidosis 6%”, the “Anemia Grade III-IV” value was 18%, the Asthenia entry is reported as “Asthenia 4%” and the “Cardiac Toxicity” value is listed as “Cardiac Toxicity 9%”. Also, for the setting “Grade III-IV”, the Diarrhea entry is on record as “Diarrhea 22%”, the Dyspnea entry is listed as “Dyspnea 17%”, the “Elevated BUN/Creatinine” value is reported as “Creatinine 14%” and the “Fever and/or Chills” value was “Fever and/or Chills 24%”. Further, under “Grade III-IV”, the “Gastrointestinal Bleeding” value is “Bleeding 4%”, the Hyperbilirubinemia result is “Hyperbilirubinemia 21%”, the Hypotension entry is reported as “Hypotension 74%” and the “Increased AST/ALT” value is “Increased AST/ALT 10%”. Further, for the setting “Grade III-IV”, the “Increased Alkaline Phosphatase” value is listed as “Phosphatase 8%”, the “Mental Status Changes” value is given as “Changes 28%”, the Nausea/Vomiting entry is recorded as “Nausea/Vomiting 25%” and the Oliguria/Anuria entry was “Oliguria/Anuria 46%”. In addition, for the setting “Grade III-IV”, the Pruritus entry is “Pruritus 4%”, the Sepsis entry is reported as “Sepsis 6%”, the Stomatitis entry is “Stomatitis 4%” and the Thrombocytopenia entry is on record as “Thrombocytopenia 21%”. In addition, the “Leukopenia/Neutropenia Toxicity” value (grade not given) is “None reported”.
On to Interferon alfa-2a, for which, where the note is “Grade III-IV”, the “Cardiac Toxicity” value is listed as “Cardiac Toxicity 5%”, the Fever entry was “Fever 5%”, the “Neurologic Toxicity” value is reported as “Neurologic Toxicity 3%” and the “Pulmonary Symptoms” value is reported as 3%. In addition, under “Grade III-IV”, the “Weight Loss” value is reported as “Weight Loss 6%”. In addition, under “Grade III”, the “Altered Mood” value is “(Grade III) 3%”, the Gastrointestinal result is “(Grade III) 13%”, the Leukopenia entry is reported as “Grade III 7%” and the Neutropenia entry is “Grade III 3%”. The Leukopenia result (grade not given) is on record as “Leukopenia 0.7%”.
